Measured values as given in patent US11221334B2, “Method for determining breast cancer treatment” (THE REGENTS OF THE UNIVERSITY OF COLORADO, A BODY CORPORATE, priority 2012, dated 2022).

Test system: FASN, GCDFP-15, PRLR
Settings: MDA-MB-453 cells; DHT

CNC(=O)c1ccc(N2C(=S)N(c3ccc(C#N)c(C(F)(F)F)c3)C(=O)C2(C)C)cc1F [enzalutamide]
expression of androgen/AR-dependent genes FASN, GCDFP-15 and PRLR: reduced
